Experimental data published in BindingDB's records for doi:10.1007/s00044-012-0055-5 (n/a, 2013).

Target: D(2) dopamine receptor (Homo sapiens) (UniProt P14416)
Test: Binding affinity to Homo sapiens (human) dopamine D2S receptor

Ki: 0.087 µM
Compound: O=c1[nH]c2cccc(N3CCN(Cc4ccccc4)CC3)c2[nH]1 [4-(4-Benzyl-piperazin-1-yl)-1,3-dihydro-benzoimidazol-2-one]
